In PMC7057333, “Macrocyclic Peptides Uncover a Novel Binding Mode for Reversible Inhibitors of LSD1” (ACS Omega, 2020):

Key:
LSD1 [1] = target: T1, LSD1 (Homo sapiens, UniProt O60341); test: SPR biosensor interaction analysis under modified conditions (25 °C, TBS-T without DTT); assay type: binding; conditions: SPR at 25 °C, buffer without disulfide exchange reagents; 2-fold dilution series from 50 μM
T1 construct: LSD1 amino acid residues 172–833; made in house; host or cells: Escherichia coli Rosetta 2 (pET15b)

LSD1 [2] = target: T1, LSD1; test: SPR biosensor interaction kinetic assay with immobilized LSD1 (15 °C, TBS-T with DTT); assay type: binding; conditions: for interaction with immobilized LSD1 (in words): standard conditions; for KD: immobilized LSD1, 15 °C, ni = no interaction observed, ns = high nonspecific binding, weak interactions only approximated, highest concentration 200 μM; for fold increase of KD on further C-terminal truncation: relative to the next longer truncated peptide (3 vs 2, 4 vs 3)

Row | Structure (SMILES) | interaction with immobilized LSD1 (in words) (LSD1 [1]) | interaction with immobilized LSD1 (in words) (LSD1 [2]) | KD (LSD1 [2]) | also measured
1 | CSCC[C@@H]1NC(=O)[C@@H](NC(=O)[C@H](CCCNC(=N)N)NC(=O)[C@H](C)N)CCC(=O)NCCCC[C@@H](C(=O)N[C@@H](C)C(=O)N[C@@H](CCCNC(N)=O)C(=O)N[C@@H](CCCCN)C(=O)N[C@@H](CO)C(=O)N[C@H](C(N)=O)[C@@H](C)O)NC(=O)[C@H](CCC(N)=O)NC1=O [Peptide 34] | well-defined dose–response interaction curves |  |  | 
2 | CSCC[C@@H]1NC(=O)[C@@H](NC(=O)[C@H](CCCNC(=N)N)NC(=O)[C@H](C)N)CCC(=O)NCCCC[C@@H](C(=O)N[C@@H](C)C(=O)N[C@@H](CCCNC(=N)N)C(=O)N[C@@H](CCCCN)C(=O)N[C@@H](CO)C(=O)N[C@H](C(N)=O)[C@@H](C)O)NC(=O)[C@H](CCC(N)=O)NC1=O [Peptide 28] | interacted specifically with LSD1 |  |  | 
3 | C[C@H](N)C(=O)N[C@@H](CCCNC(=N)N)C(=O)N[C@H](C(=O)N[C@@H](CCCCN)C(=O)N[C@@H](CCC(N)=O)C(=O)N[C@H](C(=O)N[C@@H](C)C(=O)N[C@@H](CCCNC(=N)N)C(=O)N[C@@H](CCCCN)C(=O)N[C@@H](CO)C(=O)N[C@H](C(N)=O)[C@@H](C)O)[C@@H](C)O)[C@@H](C)O [Peptide 9] |  | No signs of saturation of the interaction |  | 
4 | CSCC[C@H](NC(=O)[C@@H](NC(C)=O)[C@@H](C)O)C(=O)N[C@@H](CCC(N)=O)C(=O)N[C@H](C(=O)N[C@@H](C)C(=O)N[C@@H](CCCNC(=N)N)C(=O)N[C@@H](CCCCN)C(=O)N[C@@H](CO)C(=O)N[C@H](C(=O)NCC(=O)NCC(=O)N[C@@H](CCCCN)C(=O)N[C@@H](C)C(=O)N1CCC[C@H]1C(=O)N[C@@H](CCCNC(=N)N)C(=O)N[C@@H](CCCCN)C(=O)N[C@@H](CCC(N)=O)C(=O)N[C@@H](CC(C)C)C(=O)N[C@@H](C)C(=O)O)[C@@H](C)O)[C@@H](C)O [Peptide 8] |  | abolished the interaction completely | ni ^a | 
5 | CSCC[C@@H]1NC(=O)[C@@H](NC(=O)[C@H](CCCNC(N)=O)NC(=O)[C@H](C)N)CCC(=O)NCCCC[C@@H](C(=O)N[C@@H](C)C(=O)N[C@@H](CCCNC(=N)N)C(=O)N[C@@H](CCCCN)C(=O)N[C@@H](CO)C(=O)N[C@H](C(N)=O)[C@@H](C)O)NC(=O)[C@H](CCC(N)=O)NC1=O [Peptide 33] | well-defined dose–response interaction curves |  |  | 
6 | CSCC[C@H](NC(=O)[C@H](CCCNC(=N)N)NC(=O)[C@H](CO)NC(=O)[C@H](CCCNC(=N)N)NC(=O)[C@H](C)NC(=O)[C@H](CCCCN)NC(=O)[C@H](CCC(N)=O)NC(=O)[C@@H](N)CCC(=O)O)C(=O)N[C@@H](C)C(=O)N[C@@H](CCCCN)C(=O)N[C@H](C(N)=O)[C@@H](C)O [Peptide 10] |  | No interaction was observed | ni | 
7 | CSCC[C@@H]1NC(=O)[C@@H](NC(=O)[C@H](CCCNC(=N)N)NC(=O)[C@H](C)N)CCCCNC(=O)CC[C@@H](C(=O)N[C@@H](C)C(=O)N[C@@H](CCCNC(=N)N)C(=O)N[C@@H](CCCCN)C(=O)N[C@@H](CO)C(=O)N[C@H](C(N)=O)[C@@H](C)O)NC(=O)[C@H](CCC(N)=O)NC1=O [Peptide 27] | low or undetectable |  |  | 
8 | CSCC[C@H](NC(=O)[C@@H](NC(=O)[C@H](CCCNC(=N)N)NC(=O)[C@@H](N)C(C)(C)C)[C@@H](C)O)C(=O)N[C@@H](CCC(N)=O)C(=O)N[C@H](C(=O)N[C@@H](C)C(=O)N[C@@H](CCCNC(=N)N)C(=O)N[C@@H](CCCCN)C(=O)N[C@@H](CO)C(=O)N[C@H](C(N)=O)[C@@H](C)O)[C@@H](C)O [Peptide 12] |  | absence of a detectable interaction | ni ^c | 
9 | CSCC[C@@H]1NC(=O)[C@H](NC(=O)[C@H](CCCNC(=N)N)NC(=O)[C@H](C)N)CCCCNC(=O)CC[C@@H](C(=O)N[C@@H](C)C(=O)N[C@@H](CCCNC(=N)N)C(=O)N[C@@H](CCCCN)C(=O)N[C@@H](CO)C(=O)N[C@H](C(N)=O)[C@@H](C)O)NC(=O)[C@H](CCC(N)=O)NC1=O (relative stereo) [Peptide 31] | profile similar to that of lactam 28; also recorded: strong interaction |  |  | 
10 | CSCC[C@H](NC(=O)[C@@H](NC(=O)[C@H](CCCNC(=N)N)NC(=O)[C@H](C)N)[C@@H](C)O)C(=O)N[C@@H](CCC(N)=O)C(=O)N[C@H](C(=O)N[C@@H](C)C(=O)N[C@@H](CCCNC(N)=O)C(=O)N[C@@H](CCCCN)C(=O)N[C@@H](CO)C(=O)N[C@H](C(N)=O)[C@@H](C)O)[C@@H](C)O [Peptide 14, ARTMQTA(Cit)KST-NH2] |  | complete loss of interaction; also recorded: absence of interaction | ni | 
11 | CSCC[C@H](NC(=O)[C@@H](NC(=O)[C@H](CCCNC(=N)N)NC(=O)[C@H](C)N)[C@@H](C)O)C(=O)N[C@@H](CCC(N)=O)C(=O)N[C@H](C(=O)N[C@@H](C)C(=O)N[C@@H](CCCNC(=N)N)C(=O)N[C@@H](CCCCN)C(=O)N[C@@H](CO)C(=O)N[C@H](C(=O)NCC(=O)NCC(=O)O)[C@@H](C)O)[C@@H](C)O [Peptide 3] |  |  |  | fold increase of KD on further C-terminal truncation (LSD1 [2]): 7 fold
12 | CSCC[C@H](NC(=O)[C@@H](NC(=O)[C@H](CCCNC(=N)N)NC(=O)[C@H](C)N)[C@@H](C)O)C(=O)N[C@@H](CCC(N)=O)C(=O)N[C@H](C(=O)N[C@@H](C)C(=O)N[C@@H](CCCNC(=N)N)C(=O)N[C@@H](CCCCN)C(=O)N[C@@H](CO)C(=O)N[C@H](C(=O)O)[C@@H](C)O)[C@@H](C)O [Peptide 4] |  |  |  | fold increase of KD on further C-terminal truncation (LSD1 [2]): 4 fold
13 | CSCC[C@H](NC(=O)[C@@H](NC(=O)[C@H](CCCNC(N)=O)NC(=O)[C@H](C)N)[C@@H](C)O)C(=O)N[C@@H](CCC(N)=O)C(=O)N[C@H](C(=O)N[C@@H](C)C(=O)N[C@@H](CCCNC(=N)N)C(=O)N[C@@H](CCCCN)C(=O)N[C@@H](CO)C(=O)N[C@H](C(N)=O)[C@@H](C)O)[C@@H](C)O [Peptide 13] |  | complete loss of interaction; also recorded: absence of interaction | ni | 

“Also recorded” adds a separate entry of the source.
